Measured values as given in BindingDB's records for 31597043.
This is a selection: effects in other tests are not listed, and their absence says nothing.

By UniProt entry, the sequences of proteins in these tests, tags left out.
UniProt O15245, whole entry: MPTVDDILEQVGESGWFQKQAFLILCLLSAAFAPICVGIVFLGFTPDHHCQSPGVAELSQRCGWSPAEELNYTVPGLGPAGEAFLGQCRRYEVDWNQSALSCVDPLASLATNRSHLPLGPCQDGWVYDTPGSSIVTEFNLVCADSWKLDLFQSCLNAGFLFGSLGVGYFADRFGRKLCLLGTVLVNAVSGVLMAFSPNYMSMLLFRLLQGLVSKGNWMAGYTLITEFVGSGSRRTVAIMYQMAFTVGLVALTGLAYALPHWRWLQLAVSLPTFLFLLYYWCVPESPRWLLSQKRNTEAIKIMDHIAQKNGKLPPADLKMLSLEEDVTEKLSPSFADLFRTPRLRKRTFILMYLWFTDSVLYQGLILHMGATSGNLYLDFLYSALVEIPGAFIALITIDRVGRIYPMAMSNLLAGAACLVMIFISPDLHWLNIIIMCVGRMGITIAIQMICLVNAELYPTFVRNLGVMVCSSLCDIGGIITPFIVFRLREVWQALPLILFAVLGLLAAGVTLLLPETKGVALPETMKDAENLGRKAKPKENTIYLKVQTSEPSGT

Target: Solute carrier family 22 member 1 (Homo sapiens, UniProt O15245)
Experiment: ASSAY_NAME: ChEMBL_1823590 (CHEMBL4323354) DESCRIPTION: Inhibition of human OCT1 expressed in HEK293 cells assessed as reduction in ASP+ substrate uptake by microplate reader based analysis

CCC(=O)N(c1ccccc1)C1CCNCC1
IC50: 118 µM
